Measurements: EP0629400B1, “Idebenone compositions for treating Alzheimer's disease” (TAKEDA CHEMICAL INDUSTRIES, LTD., priority 1993, dated 1994)

Key:
rats = details: rat, in vivo
in vivo = details: rat, LD50 as an index of acute toxicity

COC1=C(OC)C(=O)C(CCCCCCCCCCO)=C(C)C1=O [idebenone, 6-(10-hydroxydecyl)-2,3-dimethoxy-5-methyl-1,4-benzoquinone]
LD50 as an index of acute toxicity (rats): about 10,000 mg/kg | LD50 (in vivo): > 10000 mg/kg
